Test results taken from ChEMBL document CHEMBL1124304 (J Med Chem, 1988).
pKi: −log10 of the molar value.

Chains of the proteins cited; added tags and fusions are not shown.
UniProt P25099, whole entry: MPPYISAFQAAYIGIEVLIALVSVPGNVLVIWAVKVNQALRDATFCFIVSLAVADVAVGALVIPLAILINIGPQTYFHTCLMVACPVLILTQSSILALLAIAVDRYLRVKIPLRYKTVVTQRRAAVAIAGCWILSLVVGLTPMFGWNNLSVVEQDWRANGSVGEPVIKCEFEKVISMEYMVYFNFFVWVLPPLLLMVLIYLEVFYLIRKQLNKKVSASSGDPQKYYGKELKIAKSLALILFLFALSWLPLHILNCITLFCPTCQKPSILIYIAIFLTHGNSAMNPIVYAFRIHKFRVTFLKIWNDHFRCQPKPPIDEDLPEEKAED

Biological target: Adenosine receptor A1 (Rattus norvegicus, UniProt P25099)

pKi: 6.23
Structure (SMILES): Nc1nc(Nc2ccccc2)nc2c1ncn2[C@@H]1O[C@H](CO)[C@@H](O)[C@H]1O
